Our source for the Kd values is publication PMC3711080 (Bioconjugate chemistry, 2011).

Chains of the proteins cited; added tags and fusions are not shown.
UniProt P61073, whole entry: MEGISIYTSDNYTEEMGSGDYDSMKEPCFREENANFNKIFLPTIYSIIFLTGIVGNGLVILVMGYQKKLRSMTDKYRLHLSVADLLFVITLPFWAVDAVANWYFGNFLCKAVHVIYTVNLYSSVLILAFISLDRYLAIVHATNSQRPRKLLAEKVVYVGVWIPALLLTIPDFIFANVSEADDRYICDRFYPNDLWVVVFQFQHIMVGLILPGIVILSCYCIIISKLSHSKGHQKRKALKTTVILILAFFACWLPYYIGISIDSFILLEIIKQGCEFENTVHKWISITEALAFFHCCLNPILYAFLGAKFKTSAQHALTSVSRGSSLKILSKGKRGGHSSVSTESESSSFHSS

This experiment addresses chemokine receptor 4 (CXCR4) (human (endogenous in MDAMB231)) (UniProt P61073). The experiment is described as follows: flow cytometry on cells.

The substance Ac-TZ14011 (peptide) showed a Kd of 8.61 nM.
Turning to Ac-TZ14011-DTPA (peptide), the dissociation constant (Kd) is 124 nM.
